Where two headings read alike, the source gives them in different places.
Tests used:
[1] = molecular target: T1, recombinant PDK-1 (Homo sapiens, UniProt O15530); assay: PDK-1 kinase activity (Upstate kit, SGK-coupled, cell-free); type: biochemical
T1 construct: purchased Upstate (Lake Placid, N.Y.)
T1 sequence (O15530 1-556): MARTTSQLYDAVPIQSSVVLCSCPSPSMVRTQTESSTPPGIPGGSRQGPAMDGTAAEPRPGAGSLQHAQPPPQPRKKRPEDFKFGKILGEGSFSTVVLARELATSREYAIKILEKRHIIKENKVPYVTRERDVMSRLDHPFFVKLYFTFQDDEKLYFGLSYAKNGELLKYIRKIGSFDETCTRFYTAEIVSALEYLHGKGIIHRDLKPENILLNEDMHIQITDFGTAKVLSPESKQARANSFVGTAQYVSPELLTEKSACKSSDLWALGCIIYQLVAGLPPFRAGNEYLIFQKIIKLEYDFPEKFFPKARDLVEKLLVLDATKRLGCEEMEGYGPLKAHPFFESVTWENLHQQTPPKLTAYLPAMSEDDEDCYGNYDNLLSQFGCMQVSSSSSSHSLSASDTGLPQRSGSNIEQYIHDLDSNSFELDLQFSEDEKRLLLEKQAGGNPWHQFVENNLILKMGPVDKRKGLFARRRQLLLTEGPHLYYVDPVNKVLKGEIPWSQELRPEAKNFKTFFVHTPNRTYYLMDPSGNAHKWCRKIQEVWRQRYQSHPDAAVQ

[2] = test system: UACC-62; assay: NCI DTP screen (SRB), Melanoma; type: cell-based; conditions: Homo sapiens
Description: (§1) Screening of compounds 70 and 71 against several cancer cell lines The human tumor cell lines of the cancer screening panel are grown in RPMI 1640 medium containing 5% fetal bovine serum and 2 mM L-glutamine. For a typical screening experiment, cells are inoculated into 96 well microtiter plates in 100 μL at plating densities ranging from 5,000 to 40,000 cells/well depending on the doubling time of individual cell lines. After cell inoculation, the microtiter plates are incubated at 37° C., 5% CO2, 95% air and 100% relative humidity for 24 h prior to addition of experimental drugs. […]
(§2) Following drug addition, the plates are incubated for an additional 48 h at 37° C., 5% CO2, 95% air, and 100% relative humidity. […] Bound stain is subsequently solubilized with 10 mM trizma base, and the absorbance is read on an automated plate reader at a wavelength of 515 nm. […] Using the seven absorbance measurements [time zero, (Tz), control growth, (C), and test growth in the presence of drug at the five concentration levels (Ti)], the percentage growth is calculated at each of the drug concentrations levels. Percentage growth inhibition is calculated as: [(Ti−Tz)/(C−Tz)]×100 for concentrations for which Ti>/=Tz [(Ti−Tz)/Tz]×100 for concentrations for which Ti<Tz
(§3) Three dose response parameters are calculated for each experimental agent. […]

[3] = test system: MALNE-3M; assay: NCI DTP screen (SRB), Melanoma; type: cell-based; conditions: Homo sapiens
Description: as §1, §2, §3

[4] = test system: HOP-92; assay: NCI DTP screen (SRB), Non-Small Cell Lung Cancer; type: cell-based; conditions: Homo sapiens
Description: as §1, §2, §3

[5] = inhibiting recombinant PDK-1 kinase activity, read-out: IC50 PDK-1

SMILES | IC50 [1] [µM] | IC50 [1, 5] [µM] | further results
NS(=O)(=O)c1ccc(-n2nc(C(F)(F)F)cc2-c2ccc3ccccc3c2)cc1 [Compound 43, 4-[5-(2-naphthalenyl)-3-(trifluoromethyl)-1H-pyrazol-1-yl]benzenesulfonamide] | 24 | – | –
Cc1ccc(-c2ccc(-c3cc(C(F)(F)F)nn3-c3ccc(S(N)(=O)=O)cc3)cc2)cc1 [Compound 50, 4-[5-(4′-methyl[1,1′-biphenyl]4-yl)-3-(trifluoromethyl)-1H-1-yl]benzenesulfonamide] | 15 | – | –
NS(=O)(=O)c1ccc(-n2nc(C(F)(F)F)cc2-c2ccc(Cc3ccccc3)cc2)cc1 [Compound 56, 4-[5-(4-(phenylmethyl)phenyl)-3-(trifluoromethyl)-1H-1-yl]benzenesulfonamide] | – | 15 | –
N=C(Cc1ccc(-n2nc(C(F)(F)F)cc2-c2ccc3c(ccc4ccccc43)c2)cc1)NO [Compound 68, 2-{4-[5-(2-Phenanthrenyl)-3-(trifluoromethyl)-1H-pyrazol-1-y]-phenyl}-N-hydroxy-acetamidine] | – | 15 | –
NCC(=O)Nc1ccc(-n2nc(C(F)(F)F)cc2-c2ccc3c(ccc4ccccc43)c2)cc1 [Compound 70, 2-Amino-N-{4-[5-(2-phenanthrenyl)-3-(trifluoromethyl)-1H-pyrazol-1-yl]-phenyl}-acetamide] | – | – | GI50 [2]: 1.53 µM; GI50 [3]: 1.74 µM; GI50 [4]: 1.61 µM

— patent US20060079566A1, “PDK-1/Akt signaling inhibitors” (priority 2003, published 2006)
